The values that follow come from patent US9448170B2 (priority 2003, dated 2016).

Read-outs that look alike come from different tables or passages of the source.

Assay [1] deals with Spirulina platensis.
Assay [2] has as its system Spirulina platensis. As to conditions: FIG. 27, 1.5 μmol/m^2/s.
Setting [3] is: light condition during standing green light (530 nm).
Where [4] appears, read: light condition during standing red light (665 nm).
Where [5] appears, read: light condition during standing white light.

TPN: in the assay with Spirulina platensis [1] (FIGS. 11, 13, 15, 17, 19, 21, difference of decay curves of test and standard solution), the “Curve value variation as the concentration becomes higher” value is “varies in the positive direction at around 1 second after excitation and then varies in the negative direction at around 3 to 5 seconds after excitation”. Further, in the assay with Spirulina platensis [1] (with an increase in concentration of the substance, FIGS. 10, 12, 14, 16, 18, 20 graph (a)), the “variation of the VCP1 value with respect to concentration” value is “increase”. Besides, in the assay with Spirulina platensis [1] (with an increase in concentration of the substance, FIGS. 10, 12, 14, 16, 18, 20 graph (b)), the “variation of the VCP2 value with respect to concentration” value is listed as “decreases”. Moreover, in the assay on Spirulina platensis [1] (with an increase in concentration of the substance, FIGS. 10, 12, 14, 16, 18, 20 graph (c)), the “variation of the VTP2 value with respect to concentration” value is “increase”. In the assay with Spirulina platensis [2] (setting [3]), this substance registered a VCP1 value of 112, a VCP2 value of 78 and a VTP2 value of 89. In the assay on Spirulina platensis [2] (setting [4]), the VCP1 value is listed as 171, the VCP2 value was 44 and the VTP2 value is 118. In the assay with Spirulina platensis [2] (setting [5]), this substance yielded a VCP1 value of 144, a VCP2 value of 47 and a VTP2 value of 122.
